Measured values reported in patent US9242970B2 (ACTELION PHARMACEUTICALS LTD., priority 2010, dated 2016).

Amino acid sequences for entries named in this document (tags omitted).
UniProt O43614, whole entry: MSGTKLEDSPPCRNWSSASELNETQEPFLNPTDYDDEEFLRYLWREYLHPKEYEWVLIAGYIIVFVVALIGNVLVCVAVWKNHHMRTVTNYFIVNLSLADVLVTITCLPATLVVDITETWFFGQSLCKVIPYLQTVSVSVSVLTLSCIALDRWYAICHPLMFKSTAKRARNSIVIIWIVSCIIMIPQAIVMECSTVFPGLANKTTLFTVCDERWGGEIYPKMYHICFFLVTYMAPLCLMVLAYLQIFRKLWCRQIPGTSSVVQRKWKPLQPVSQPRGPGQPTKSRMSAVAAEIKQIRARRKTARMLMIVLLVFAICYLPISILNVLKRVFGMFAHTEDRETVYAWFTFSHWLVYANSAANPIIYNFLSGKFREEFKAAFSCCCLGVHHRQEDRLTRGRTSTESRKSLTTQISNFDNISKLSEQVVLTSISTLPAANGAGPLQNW
UniProt O43613, whole entry: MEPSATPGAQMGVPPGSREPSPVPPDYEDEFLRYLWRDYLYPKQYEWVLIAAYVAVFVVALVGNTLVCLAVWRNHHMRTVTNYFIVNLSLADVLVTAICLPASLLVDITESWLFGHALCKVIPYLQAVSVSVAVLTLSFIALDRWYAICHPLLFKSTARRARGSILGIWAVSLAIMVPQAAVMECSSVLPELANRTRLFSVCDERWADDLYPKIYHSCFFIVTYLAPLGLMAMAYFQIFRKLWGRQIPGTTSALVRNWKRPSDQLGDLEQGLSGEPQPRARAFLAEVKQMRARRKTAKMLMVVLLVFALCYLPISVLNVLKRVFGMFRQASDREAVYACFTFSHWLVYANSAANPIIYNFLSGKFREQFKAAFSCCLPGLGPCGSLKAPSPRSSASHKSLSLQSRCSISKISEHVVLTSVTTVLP

Molecular target: human orexin-2 receptor (Homo sapiens (Human), UniProt O43614)
Assay: In vitro assay: intracellular calcium measurements (FLIPR), antagonistic activity
Type: cell-based
Conditions: CHO cells, 3 nM orexin-A, compound incubation 120 min; marked values are geometric means of n = 2-6; read-out: IC50 OX2
Description: (§1) In Vitro Assay: Intracellular Calcium Measurements:
(§2) Chinese hamster ovary (CHO) cells expressing the human orexin-1 receptor and the human orexin-2 receptor, respectively, are grown in culture medium (Ham F-12 with L-Glutamine) containing 300 µg/ml G418, 100 U/ml penicillin, 100 µg/ml streptomycin and 10% heat inactivated fetal calf serum (FCS). The cells are seeded at 20,000 cells/well into 384-well black clear bottom sterile plates (Greiner). The seeded plates are incubated overnight at 37° C. in 5% CO2.
(§3) Fluorescence is measured for each well at 1 second intervals, and the height of each fluorescence peak is compared to the height of the fluorescence peak induced by 3 nM orexin-A with vehicle in place of antagonist. […] Optimized conditions were achieved by adjustment of pipetting speed and cell splitting regime. The calculated IC50 values may fluctuate depending on the daily cellular assay performance. Fluctuations of this kind are known to those skilled in the art.

| IC50 | Compound |
| --- | --- |
| 1760 nM | CCOc1c(F)cccc1[C@@H]1C[C@@H](Cl)C(=O)N1Cc1ccc(OC(F)(F)F)cc1 (racemic) [Example 327, rac-(3R*,5S*)-3-chloro-5-(2-ethoxy-3-fluorophenyl)-1-(4-(trifluoromethoxy)benzyl)pyrrolidin-2-one] |
| 294 nM | COc1cccc(Cl)c1[C@@H]1C[C@@H](O)C(=O)N1Cc1ccc(OC(F)(F)F)cc1 (racemic) [Example 294, rac-(3R*,5S*)-5-(2-chloro-6-methoxyphenyl)-3-hydroxy-1-(4-(trifluoromethoxy)benzyl)pyrrolidin-2-one] |
| 392 nM | CCOc1cc(F)ccc1[C@@H]1C[C@H](F)C(=O)N1Cc1ccc(OC(F)(F)F)cc1 (racemic) [Example 344, rac-(3S*,5S*)-5-(2-ethoxy-4-fluorophenyl)-3-fluoro-1-(4-(trifluoromethoxy)benzyl)pyrrolidin-2-one] |
| 219 nM | COc1c(F)ccc(F)c1[C@@H]1C[C@H](Cl)C(=O)N1Cc1ccc(OC(F)(F)F)cc1 (racemic) [Example 320, rac-(3S*,5S*)-3-chloro-5-(3,6-difluoro-2-methoxyphenyl)-1-(4-(trifluoromethoxy)benzyl)pyrrolidin-2-one] |
| 75 nM | CCOc1cccc(Cl)c1[C@@H]1C[C@@H](O)C(=O)N1Cc1ccc(OC(F)(F)F)cc1 (racemic) [Example 427, rac-(3R*,5S*)-5-(2-chloro-6-ethoxyphenyl)-3-hydroxy-1-(4-(trifluoromethoxy)benzyl)pyrrolidin-2-one] |
| 7 nM | COc1cccc(F)c1[C@@H]1C[C@@H](F)C(=O)N1Cc1ccc2oc3ccccc3c2c1 (racemic) [Example 395, rac-(3R*,5S*)-1-(dibenzo[b,d]furan-2-ylmethyl)-3-fluoro-5-(2-fluoro-6-methoxyphenyl)pyrrolidin-2-one] |
| 152 nM | COc1cccc(F)c1[C@@H]1C[C@@H](O)C(=O)N1Cc1cccc(OC(F)(F)F)c1 (racemic) [Example 430, rac-(3R*,5S*)-5-(2-fluoro-6-methoxyphenyl)-3-hydroxy-1-(3-(trifluoromethoxy)benzyl)pyrrolidin-2-one] |
| 552 nM | COc1ccc2ccccc2c1[C@@H]1C[C@H](F)C(=O)N1Cc1ccc(OC(F)(F)F)cc1 (racemic) [Example 315, rac-(3S*,5S*)-3-fluoro-5-(2-methoxynaphthalen-1-yl)-1-(4-(trifluoromethoxy)benzyl)pyrrolidin-2-one] |
| 178 nM | COc1cccc(C)c1[C@@H]1C[C@H](F)C(=O)N1Cc1ccc(OC(F)(F)F)cc1 (racemic) [Example 325, rac-(3S*,5S*)-3-fluoro-5-(2-methoxy-6-methylphenyl)-1-(4-(trifluoromethoxy)benzyl)pyrrolidin-2-one] |
| 338 nM | COc1cccc(F)c1[C@@H]1C[C@@H](O)C(=O)N1Cc1ccc(OC(F)(F)F)cc1 (racemic) [Example 293, rac-(3R*,5S*)-5-(2-fluoro-6-methoxyphenyl)-3-hydroxy-1-(4-(trifluoromethoxy)benzyl)pyrrolidin-2-one] |
| 2 nM | COc1cccc(F)c1[C@@H]1C[C@H](F)C(=O)N1Cc1ccc2oc3ccccc3c2c1 (racemic) [Example 406, rac-(3S*,5S*)-1-(dibenzo[b,d]furan-2-ylmethyl)-3-fluoro-5-(2-fluoro-6-methoxyphenyl)pyrrolidin-2-one] |
| 528 nM | CCOc1c(F)cccc1[C@@H]1C[C@H](Cl)C(=O)N1Cc1ccc(OC(F)(F)F)cc1 (racemic) [Example 329, rac-(3S*,5S*)-3-chloro-5-(2-ethoxy-3-fluorophenyl)-1-(4-(trifluoromethoxy)benzyl)pyrrolidin-2-one] |
| 197 nM | COc1ccc(F)c(OC)c1[C@@H]1C[C@H](Cl)C(=O)N1Cc1ccc(OC(F)(F)F)cc1 (racemic) [Example 330, rac-(3S*,5S*)-3-chloro-5-(3-fluoro-2,6-dimethoxyphenyl)-1-(4-(trifluoromethoxy)benzyl)pyrrolidin-2-one] |
| 22 nM | CCOc1cccc(F)c1[C@@H]1C[C@H](Cl)C(=O)N1Cc1ccc(OC(F)(F)F)c(Cl)c1 (racemic) [Example 462, rac-(3S*,5S*)-3-chloro-1-(3-chloro-4-(trifluoromethoxy)benzyl)-5-(2-ethoxy-6-fluorophenyl)pyrrolidin-2-one] |
| 25 nM | CC(C)Oc1cccc(F)c1[C@@H]1C[C@H](Cl)C(=O)N1Cc1ccc(OC(F)(F)F)cc1 (racemic) [Example 409, rac-(3S*,5S*)-3-chloro-5-(2-fluoro-6-isopropoxyphenyl)-1-(4-(trifluoromethoxy)benzyl)pyrrolidin-2-one] |
| 40 nM | COc1cccc(OC)c1[C@@H]1C[C@@H](F)C(=O)N1Cc1ccc2oc3ccccc3c2c1 (racemic) [Example 368, rac-(3R*,5S*)-1-(dibenzo[b,d]furan-2-ylmethyl)-5-(2,6-dimethoxyphenyl)-3-fluoropyrrolidin-2-one] |
| 1790 nM | COc1ccc(F)c(OC)c1[C@@H]1C[C@@H](Cl)C(=O)N1Cc1ccc(OC(F)(F)F)cc1 (racemic) [Example 328, rac-(3R*,5S*)-3-chloro-5-(3-fluoro-2,6-dimethoxyphenyl)-1-(4-(trifluoromethoxy)benzyl)pyrrolidin-2-one] |
| 4 nM | CCOc1cccc(F)c1[C@@H]1C[C@H](F)C(=O)N1Cc1ccc(OC(F)(F)F)c(Cl)c1 (racemic) [Example 461, rac-(3S*,5S*)-1-(3-chloro-4-(trifluoromethoxy)benzyl)-5-(2-ethoxy-6-fluorophenyl)-3-fluoropyrrolidin-2-one] |
| 1410 nM | COc1c(F)ccc(F)c1[C@@H]1C[C@@H](Cl)C(=O)N1Cc1ccc(OC(F)(F)F)cc1 (racemic) [Example 317, rac-(3R*,5S*)-3-chloro-5-(3,6-difluoro-2-methoxyphenyl)-1-(4-(trifluoromethoxy)benzyl)pyrrolidin-2-one] |
| 93 nM | COc1cccc(F)c1[C@@H]1C[C@H](F)C(=O)N1Cc1cccc(OC(F)(F)F)c1 (racemic) [Example 463, rac-(3S*,5S*)-3-fluoro-5-(2-fluoro-6-methoxyphenyl)-1-(3-(trifluoromethoxy)benzyl)pyrrolidin-2-one] |
| 11 nM | CC(C)Oc1cccc(F)c1[C@@H]1C[C@H](F)C(=O)N1Cc1ccc(OC(F)(F)F)cc1 (racemic) [Example 407, rac-(3S*,5S*)-3-fluoro-5-(2-fluoro-6-isopropoxyphenyl)-1-(4-(trifluoromethoxy)benzyl)pyrrolidin-2-one] |
| 1 nM | COc1cccc(OC)c1[C@@H]1C[C@H](F)C(=O)N1Cc1ccc2oc3ccccc3c2c1 (racemic) [Example 367, rac-(3S*,5S*)-1-(dibenzo[b,d]furan-2-ylmethyl)-5-(2,6-dimethoxyphenyl)-3-fluoropyrrolidin-2-one] |

Same assay, conditions: CHO cells, 3 nM orexin-A, compound incubation time of 10 min; marked values are geometric means of n = 2-6; read-out: IC50 OX2

| IC50 | Compound |
| --- | --- |
| 19 nM | COc1cccc(OC)c1[C@@H]1C[C@H](F)C(=O)N1Cc1ccc(OC(F)(F)F)cc1 (racemic) [Example 260, rac-(3S*,5S*)-5-(2,6-dimethoxyphenyl)-3-fluoro-1-(4-(trifluoromethoxy)benzyl)pyrrolidin-2-one] |
| 59 nM | COc1cccc(OC)c1[C@@H]1C[C@@H](O)C(=O)N1Cc1ccc(OC(F)(F)F)cc1 (racemic) [Example 258, rac-(3R*,5S*)-5-(2,6-dimethoxyphenyl)-3-hydroxy-1-(4-(trifluoromethoxy)benzyl)pyrrolidin-2-one] |
| 1090 nM | COc1cccc(F)c1[C@@H]1C[C@H](O)C(=O)N1Cc1ccc(OC(F)(F)F)cc1 (racemic) [Example 265, rac-(3S*,5S*)-5-(2-fluoro-6-methoxyphenyl)-3-hydroxy-1-(4-(trifluoromethoxy)benzyl)pyrrolidin-2-one] |
| 242 nM | COc1cccc(OC)c1[C@@H]1C[C@@H](F)C(=O)N1Cc1ccc(OC(F)(F)F)cc1 (racemic) [Example 255, rac-(3R*,5S*)-5-(2,6-dimethoxyphenyl)-3-fluoro-1-(4-(trifluoromethoxy)benzyl)pyrrolidin-2-one] |
| 670 nM | COc1cccc(OC)c1[C@@H]1C[C@H](O)C(=O)N1Cc1ccc(OC(F)(F)F)cc1 (racemic) [Example 253, rac-(3S*,5S*)-5-(2,6-dimethoxyphenyl)-3-hydroxy-1-(4-(trifluoromethoxy)benzyl)pyrrolidin-2-one] |

Molecular target: human orexin-1 receptor (Homo sapiens (Human), UniProt O43613)
Assay: as above
Type: cell-based
Conditions: CHO cells, 3 nM orexin-A, compound incubation 120 min; marked values are geometric means of n = 2-6; read-out: IC50 OX1
Description: as §1, §2, §3

| IC50 | Compound |
| --- | --- |
| 1200 nM | CCOc1c(F)cccc1[C@@H]1C[C@@H](O)C(=O)N1Cc1ccc(OC(F)(F)F)cc1 (racemic) [Example 310, rac-(3R*,5S*)-5-(2-ethoxy-3-fluorophenyl)-3-hydroxy-1-(4-(trifluoromethoxy)benzyl)pyrrolidin-2-one] |
| 567 nM | COc1cc(F)ccc1[C@@H]1C[C@H](Cl)C(=O)N1Cc1ccc(OC(F)(F)F)cc1 (racemic) [Example 308, rac-(3S*,5S*)-3-chloro-5-(4-fluoro-2-methoxyphenyl)-1-(4-(trifluoromethoxy)benzyl)pyrrolidin-2-one] |
| 1380 nM | COc1cc(F)ccc1[C@@H]1C[C@H](F)C(=O)N1Cc1ccc(OC(F)(F)F)cc1 (racemic) [Example 303, rac-(3S*,5S*)-3-fluoro-5-(4-fluoro-2-methoxyphenyl)-1-(4-(trifluoromethoxy)benzyl)pyrrolidin-2-one] |
| 986 nM | COc1cc(F)ccc1[C@@H]1C[C@@H](Cl)C(=O)N1Cc1ccc(OC(F)(F)F)cc1 (racemic) [Example 323, rac-(3R*,5S*)-3-chloro-5-(4-fluoro-2-methoxyphenyl)-1-(4-(trifluoromethoxy)benzyl)pyrrolidin-2-one] |
